Experimental data published in publication PMC6838683, “Discovery of Human Signaling Systems: Pairing Peptides to G Protein-Coupled Receptors” (Cell, 2019).

The chains behind the UniProt entries cited, without tags or fusion partners.
UniProt P41143, whole entry: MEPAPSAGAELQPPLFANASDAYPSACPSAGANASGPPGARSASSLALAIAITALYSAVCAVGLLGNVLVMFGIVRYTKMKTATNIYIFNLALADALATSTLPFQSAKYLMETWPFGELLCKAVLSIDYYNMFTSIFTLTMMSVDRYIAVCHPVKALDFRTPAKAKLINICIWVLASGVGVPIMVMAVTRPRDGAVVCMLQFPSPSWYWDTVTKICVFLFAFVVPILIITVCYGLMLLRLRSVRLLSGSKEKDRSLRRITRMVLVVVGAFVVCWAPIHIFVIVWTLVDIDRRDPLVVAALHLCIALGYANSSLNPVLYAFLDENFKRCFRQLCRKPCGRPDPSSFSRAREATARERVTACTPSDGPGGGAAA

Key:
[1] = system: human GPCRs; parameters: method as in Guide to Pharmacology database; conditions: max reported value, ref Guide to Pharmacology database, cited from earlier work
Text: Supplement mmc1.xlsx, sheet "HumanGPCRLigands" | column: pKi_value; pKd_value; pEC50_value; pIC50_value

[2] = target: T1, OPRD1 (Homo sapiens, UniProt P41143); assay: β-arrestin recruitment (Tango), known peptide receptors; assay type: cell-based; conditions: endogenous ligand(s) included in peptide library
T1 construct: host or cells: HTLA cells (HEK293-derived)
Text: Supplement mmc6.xlsx, sheet "Peptide GPCR controls" | column: Confirmed?

[3] = receptor LHCGR (lshr_human, P22888)

LH
pIC50_value [1, 3]: 10.9

α-CGRP
pEC50_value ([1]; receptor calcr_human (CALCR), Calcitonin receptors, Class B1 (Secretin)): 8.4

CC(=O)OCC[N+](C)(C)C [acetylcholine]
pKi_value ([1]; receptor acm1_human (CHRM1, P11229)): 4.9

Beta-endorphin
Confirmed? (confirmation of b-arrestin recruitment) [2]: No

hCG
pKd_value [1, 3]: 11.8
